# Molecular target: T1, GST-PKBα (Homo sapiens, UniProt P31749)
# By UniProt entry, the sequences of proteins in these tests, tags left out. Where a name states a change or a piece, a line headed by the entry shows the natural chain unless it says otherwise.
# UniProt P31749: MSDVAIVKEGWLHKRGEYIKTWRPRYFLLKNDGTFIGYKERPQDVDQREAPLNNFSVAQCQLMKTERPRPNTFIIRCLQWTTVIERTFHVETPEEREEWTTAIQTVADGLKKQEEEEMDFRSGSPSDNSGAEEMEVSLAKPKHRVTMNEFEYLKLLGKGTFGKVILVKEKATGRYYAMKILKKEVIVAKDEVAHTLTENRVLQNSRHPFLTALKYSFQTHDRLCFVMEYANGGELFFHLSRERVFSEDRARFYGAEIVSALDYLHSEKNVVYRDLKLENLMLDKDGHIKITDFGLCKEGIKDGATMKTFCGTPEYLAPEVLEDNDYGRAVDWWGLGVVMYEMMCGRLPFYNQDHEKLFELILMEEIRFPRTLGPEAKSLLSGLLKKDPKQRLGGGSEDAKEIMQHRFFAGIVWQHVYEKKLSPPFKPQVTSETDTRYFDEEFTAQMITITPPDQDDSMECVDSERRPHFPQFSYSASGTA
# T1 construct: made in house; host or cells: 293 cells (pEBG2T)
# Assay: Two-stage PKBα activation assay (maximum specific activity)
# Type: biochemical
# Conditions: MgATP and PtdIns(3,4,5)P3
# Description: FIG. 4. Incubation of PIF with PKBα induces phosphorylation of PKBα at both Thr308 and Ser473. GST-PKBα (A) or GST-S473D-PKBα (B) was incubated at 30° C. for 1 h with MgATP in the presence of either His-PDK1 (0.1 μg) or GST-PIF purified from 293 cells which is associated with endogenous PDK1 (1 μg termed GST-PIF/PDK1) in the presence or absence of phospholipid vesicles containing 100 μM PtdCho, 100 μM PtdSer, and 10 μM sn-1-stearoyl-2-arachidonoyl-D-PtdIns(3,4,5)P3. The increase in specific activity of GST-PKBα was determined, relative to a control incubation in which His-PDK1 or GST-PIF was omitted (average for 6 determinations, two independent experiments). […] Between 50-70% of the radioactivity applied to the column was recovered in the major ^32P-containing peptides eluting at 24% and 26% acetonitrile, which were identified (see results) as the PKBα tryptic peptides phosphorylated at Ser473 and Thr308 respectively. […]
# In Stage 1, an 15 μl reaction mixture was set up containing 66.5 mM Tris/HCl pH 7.5, 0.13 mM EGTA, 0.13% (by vol) 2-mercaptoethanol, 3.3 μM PKI, 1.3 μM microcystin-LR, 13.3 mM Mg(Ac)2, 133 μM unlabelled ATP, 0.4 μM GST-PKBA, 133 μM PtdSer, 133 μM PtdCho in the presence or absence of 13.3 μM PtdIns(3,4,5)P3. […] The papers were washed in 75 mM phosphoric acid and analysed as described previously. […] The basal GST-PKBα activity is the activity measured in the absence of PDK1. […]
molecule,measurement,value
"His-PDK1: Myc-PDK1 with an N-terminal hexahistidine sequence, expressed in Sf21 insect cells (protein, left off: small tags and cut ends) MARTTSQLYDAVPIQSSVVLCSCPSPSMVRTQTESSTPPGIPGGSRQGPAMDGTAAEPRPGAGSLQHAQPPPQPRKKRPEDFKFGKILGEGSFSTVVLARELATSREYAIKILEKRHIIKENKVPYVTRERDVMSRLDHPFFVKLYFTFQDDEKLYFGLSYAKNGELLKYIRKIGSFDETCTRFYTAEIVSALEYLHGKGIIHRDLKPENILLNEDMHIQITDFGTAKVLSPESKQARANSFVGTAQYVSPELLTEKSACKSSDLWALGCIIYQLVAGLPPFRAGNEYLIFQKIIKLEYDFPEKFFPKARDLVEKLLVLDATKRLGCEEMEGYGPLKAHPFFESVTWENLHQQTPPKLTAYLPAMSEDDEDCYGNYDNLLSQFGCMQVSSSSSSHSLSASDTGLPQRSGSNIEQYIHDLDSNSFELDLQFSEDEKRLLLEKQAGGNPWHQFVENNLILKMGPVDKRKGLFARRRQLLLTEGPHLYYVDPVNKVLKGEIPWSQELRPEAKNFKTFFVHTPNRTYYLMDPSGNAHKWCRKIQEVWRQRYQSHPDAAVQ",maximum specific activity of GST-PKBα,~30 U/mg
